{"source": "patent US6812034B2", "about": "“Fetuin-MGP-mineral complex in serum assayed to determine calcification risk” (The Regents of the University of California, priority 2000, dated 2004)", "key": {"[1]": {"assay": "serum levels of calcium and phosphate in rats treated with vitamin D plus warfarin", "format": "in vivo, rat", "conditions": "84 h"}, "[2]": {"assay": "weight, tibia length and serum calcium and phosphate in warfarin-treated rats", "format": "in vivo, rat", "conditions": "0.25 mg P/kg/day plus warfarin, 4 weeks"}}}
{"smiles": "NCCCC(O)(P(=O)(O)O)P(=O)(O)O", "note": "[Alendronate, (4-amino-1-hydroxybutylidene)bis-phosphonate]", "values": [{"measurement": "Serum Ca", "setting": "[1]; 0.002 mg P/kg/day", "result": "13.6 ± 0.2", "unit": "mg/dL"}, {"measurement": "Serum Ca", "setting": "[1]; 0.05 mg P/kg/day", "result": "15.5 ± 0.4", "unit": "mg/dL"}, {"measurement": "Ending wt", "setting": "[2]", "result": "300 ± 5", "unit": "gm"}]}
